The values below come from PubChem BioAssay AID2247 (Johns Hopkins Ion Channel Center, 2010).

By UniProt entry, the sequences of proteins in these tests, tags left out.
UniProt Q9QUQ5, whole entry: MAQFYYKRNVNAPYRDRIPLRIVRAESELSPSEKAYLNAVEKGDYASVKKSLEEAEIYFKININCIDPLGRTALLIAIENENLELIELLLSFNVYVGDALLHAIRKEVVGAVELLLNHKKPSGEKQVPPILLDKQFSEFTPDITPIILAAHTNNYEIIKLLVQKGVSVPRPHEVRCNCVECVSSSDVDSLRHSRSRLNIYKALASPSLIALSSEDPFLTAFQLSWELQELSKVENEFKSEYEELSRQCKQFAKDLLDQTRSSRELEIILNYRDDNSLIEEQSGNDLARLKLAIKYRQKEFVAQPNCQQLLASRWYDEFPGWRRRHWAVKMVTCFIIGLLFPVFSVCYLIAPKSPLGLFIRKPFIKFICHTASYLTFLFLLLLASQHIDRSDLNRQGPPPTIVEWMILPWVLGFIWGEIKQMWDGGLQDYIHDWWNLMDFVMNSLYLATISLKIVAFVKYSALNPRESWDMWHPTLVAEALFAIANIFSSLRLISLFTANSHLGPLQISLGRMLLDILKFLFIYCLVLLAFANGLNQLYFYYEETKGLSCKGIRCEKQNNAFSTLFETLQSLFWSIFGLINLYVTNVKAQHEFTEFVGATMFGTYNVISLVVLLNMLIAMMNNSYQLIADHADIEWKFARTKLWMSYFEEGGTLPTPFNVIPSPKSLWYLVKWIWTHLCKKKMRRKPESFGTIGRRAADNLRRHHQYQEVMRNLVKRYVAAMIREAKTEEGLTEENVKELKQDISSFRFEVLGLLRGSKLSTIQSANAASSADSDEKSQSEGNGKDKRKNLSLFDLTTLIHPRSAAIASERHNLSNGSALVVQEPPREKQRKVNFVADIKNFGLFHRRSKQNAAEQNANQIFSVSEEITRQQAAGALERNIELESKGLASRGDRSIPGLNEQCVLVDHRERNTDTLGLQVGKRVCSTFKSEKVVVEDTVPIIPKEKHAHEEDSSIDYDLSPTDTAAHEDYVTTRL

Each structure is given as a SMILES string. Only a part is listed here, and it is no random draw. Calls of active or inactive are those of the source.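 Rule for the calls: active = B-score over 3 SD under the library average, no early fluorescence shift, positive overall ratio signal; inactive = the rest.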

In this assay the target is Short transient receptor potential channel 4 (Mus musculus) (UniProt Q9QUQ5). The assay can be described thus: blockers of DAMGO-evoked TRPC4 calcium flux – Fluo4 calcium, HEK293 TRPC4beta/mu-opioid cells, primary screen (AID 2247). Particulars: at 10 µM. Background: Calcium flux is commonly read through the fluorescence of an indicator in the cells.
Consider `CC(C)(C)C(=O)NC(Sc1ccncn1)C(Cl)(Cl)Cl` (centres undefined), for which the result was inactive.
As to `O=[N+]([O-])c1ncn(CCn2ncnc2[N+](=O)[O-])n1`, the outcome was inactive.
As for `O=[N+]([O-])c1cccc(NC2=NCC(CBr)S2)c1` (centres undefined), the result was inactive.
In the case of `O=C(O)CNc1ccc([As](=O)(O)O)cc1`, the outcome was inactive.
Regarding `Nc1ccc2c(ccc3cccnc32)n1.O=[N+]([O-])c1cc([N+](=O)[O-])c(O)c([N+](=O)[O-])c1`, the outcome was inactive.
On to `O=C(Nc1cc([As](=O)(O)O)ccc1O)c1ccccc1`, for which the result was inactive.
Take `CCOC(=O)c1ccc(NP(C)(=O)Oc2ccc(Cl)cc2)cc1` (centres undefined): the outcome was inactive.
For the molecule `CP(=O)(OC12CC3CC(CC(C3)C1)C2)OC12CC3CC(CC(C3)C1)C2`, the result was inactive.
For `C[N+]1=C2C=CC=CC=C2SC12C([N+](=O)[O-])=CC([N+](=O)[O-])=C[C-]2[N+](=O)[O-]` (centres undefined), the outcome was inactive.
On to `COc1ccccc1OP(C)(=O)Nc1ccccc1Br` (centres undefined), for which the outcome was inactive.
On to `Nc1ccc([As](=O)(O)c2ccc(N)cc2)cc1`, for which the outcome was inactive.
With `CC(C)(C)c1ccc(OP(C)(=O)O)cc1`, the result was inactive.
To `CP(=O)(Nc1ccc(Cl)cc1)Oc1ccc(F)cc1` (centres undefined) belongs “inactive”; to `CCN(/C(=N/P(=O)(N1CCOCC1)N1CCOCC1)N1CCOCC1)c1ccc(OC)cc1`, “inactive”; to `CN(C)C(=O)OCCc1n(C)cc[n+]1C`, “inactive”.
As for `CC(C)=N/N=C(\N)N[N+](=O)[O-]`, the result was inactive.
Turning to `CN(C)C(=O)c1c([N+](=O)[O-])cc([N+](=O)[O-])cc1[N+](=O)[O-]`, the result was inactive.
Regarding `CC1CCN(C(=O)Oc2c(Cl)cc(Cl)c3cccnc23)CC1`, the outcome was inactive.
For `COc1ccc(OP(C)(=O)Nc2ccc(Br)cc2)cc1` (centres undefined), the result was inactive.
Turning to `COc1ccc(C2=NCC(CBr)S2)cc1` (centres undefined), the outcome was inactive.
As to `CCN(CC)CC(O)COC(=O)C(O)(c1ccccc1)C1CCCCC1` (centres undefined), the outcome was inactive.
Next, `O=C(OCCCN1CCCC1)C(O)(c1ccccc1)C1CCCCC1` (centres undefined): “inactive”; `CC(=O)N1C2C3N(C(C)=O)C1C1N(C(C)=O)C(C(N1C(C)=O)N3C(C)=O)N2C(C)=O`: “inactive”; `O=[N+]([O-])c1cccc2n[nH]nc12`: “inactive”.
Next, `COc1ccccc1OP(C)(=O)Nc1c(C)n(C)n(-c2ccccc2)c1=O` (centres undefined): “inactive”.
To `CCc1ccc(OP(C)(=O)Nc2cccnc2)cc1` (centres undefined) belongs “inactive”.
In the case of `O=[N+]([O-])c1cc([N+](=O)[O-])c(CCNc2ccccc2)c([N+](=O)[O-])c1`, the outcome was inactive.
With `CCc1nc2c(n1)c1c(non1O)c1c2no[n+]1[O-]`, the outcome was inactive.
On to `CP(=O)(Oc1ccccc1)N1CCOC1=O` (centres undefined), for which the result was inactive.
Next, `Cc1ccc(NP(=O)(Oc2ccccc2)Oc2ccccc2)nc1`: “inactive”.
For `Nc1cc(N)c2nonc2c1[N+](=O)[O-]`, the outcome was inactive.
With `Cc1c(NP(C)(=O)Oc2ccc(C(C)C)cc2)c(=O)n(-c2ccccc2)n1C` (centres undefined), the result was inactive.
Take `O=[N+]([O-])c1cc([N+](=O)[O-])c(Nc2ccccn2)c([N+](=O)[O-])c1`: the result was inactive.
For the molecule `CC(C)CC(=O)NC(Sc1ccc(Cl)cc1)C(Cl)(Cl)Cl` (centres undefined), the result was inactive.
As to `O=C(NC(Sc1ccncn1)C(Cl)(Cl)Cl)c1ccccc1` (centres undefined), the outcome was inactive.
To `Cc1c2non([O-])c-2c(C)[n+](=O)[n+]1[O-]` belongs “inactive”.
On to `Oc1ccccc1CNc1ccccn1`, for which the outcome was inactive.
As for `COc1ccccc1OP(C)(=O)Nc1ccc(C)cc1C` (centres undefined), the outcome was inactive.
As to `CP(=O)(Nc1ccccn1)Oc1ccccc1` (centres undefined), the outcome was inactive.
As to `CCc1ccc(OP(C)(=O)O)cc1`, the outcome was inactive.
Next, `NC(=O)c1cc([N+](=O)[O-])cc([N+](=O)[O-])c1N`: “inactive”; `Cc1ccc(N/C(=N/P(=O)(N2CCOCC2)N2CCOCC2)N2CCOCC2)cc1`: “inactive”; `COc1ccccc1OP(C)(=O)Nc1ccc(Br)cc1` (centres undefined): “inactive”.
`Cc1ccc(OP(=O)(Nc2nccs2)Oc2ccc(C)cc2)cc1`: the outcome was inactive.
Consider `COc1ccccc1OP(=O)(Nc1ccc(C)cn1)Oc1ccccc1OC`, for which the result was inactive.
In the case of `COc1ccc(OP(C)(=O)Nc2ccccn2)cc1` (centres undefined), the result was inactive.
As for `CN1CCCC(OC(=O)C(c2ccccc2)c2ccccc2)C1` (centres undefined), the result was inactive.
For `CN(C)CCOC(=O)C(O)(c1ccccc1)C1CCCC1` (centres undefined), the outcome was inactive.
With `Clc1ccc(Cl)c(NC2=NCC(CBr)S2)c1` (centres undefined), the outcome was inactive.
As for `Cc1nc2ccc3ccccc3c2o1.O=[N+]([O-])c1cc([N+](=O)[O-])c(O)c([N+](=O)[O-])c1`, the outcome was inactive.
To `O=[N+]([O-])c1cc([N+](=O)[O-])c(CCN2CCOCC2)c([N+](=O)[O-])c1` belongs “inactive”; to `CCN(N=Nc1nonc1N)c1nonc1N`, “inactive”.
With `CP(=O)(Nc1ccc(Cl)cc1Cl)Oc1ccccc1` (centres undefined), the result was inactive.
On to `CP(=O)(OCCOc1ccccc1)OCCOc1ccccc1`, for which the result was inactive.
For `Nc1cccc2ccc([As](=O)(O)O)cc12`, the outcome was inactive.
Take `CC(=O)Nc1ccc([As](=O)(O)O)cc1`: the result was inactive.
`O=C(O)c1ccccc1[As](=O)(O)O`: the result was inactive.
To `O=P(Nc1nc2ccc(Cl)cc2s1)(c1ccccc1)c1ccccc1` belongs “inactive”.
On to `Cc1cc(C)cc(OP(C)(=O)Nc2cccc(C(F)(F)F)c2)c1` (centres undefined), for which the outcome was inactive.
Consider `COc1ccccc1OP(C)(=O)Nc1ccc(C)c(C)c1` (centres undefined), for which the result was inactive.
For `CN(C(=O)Cc1ccc(Cl)c(Cl)c1)[C@H]1CCCC[C@@H]1N1CCCC1`, the result was inactive.
In the case of `Cc1ccc(NP(=O)(Oc2ccccc2F)Oc2ccccc2F)nc1`, the outcome was inactive.
As to `Cc1cc(SC(NC(=O)c2ccc(F)cc2)C(Cl)(Cl)Cl)ncn1` (centres undefined), the outcome was inactive.
Next, `CCOP(=O)(Nc1ccccc1)OCC`: “inactive”; `COc1ccc(OP(C)(=O)Nc2ccccc2Br)cc1` (centres undefined): “inactive”.
Turning to `CC(=O)NC(SC(=S)N(CC(C)C)CC(C)C)C(Cl)(Cl)Cl` (centres undefined), the outcome was inactive.
Take `Cc1ccc(OP(=O)(Nc2ccccn2)Oc2ccc(C)cc2)cc1`: the outcome was inactive.
Consider `COC(=O)c1cc2c(s1)N=C(c1ccccc1)N(C)P2(=O)N1CCOCC1` (centres undefined), for which the result was inactive.
Consider `CCC(=O)N1C2C3N(C(=O)CC)C1C1N(C(=O)CC)C(C(N1C(=O)CC)N3C(=O)CC)N2C(=O)CC`, for which the result was inactive.
On to `CCN(CC)CCCOC(=O)C(O)(c1ccccc1)C1CCCCC1` (centres undefined), for which the result was inactive.
To `O=C(OC1CN2CCC1CC2)c1ccccc1` (centres undefined) belongs “inactive”; to `CP(=O)(Nc1ccccc1)Oc1ccc(F)cc1` (centres undefined), “inactive”.
As for `CCCCCOc1ccc(NP(C)(=O)Oc2ccc(Cl)cc2Cl)cc1` (centres undefined), the outcome was inactive.
Next, `O=[N+]([O-])c1cc([N+](=O)[O-])c(OC2CCCCC2O)c([N+](=O)[O-])c1` (centres undefined): “inactive”.
